The values below are quoted from earlier work in patent US20200352905A1, “6-(2,4-DICHLOROPHENYL)-5-[4-[(3S)-1-(3-FLUOROPROPYL)PYRROLIDIN-3-YL]OXYPHENYL]-8,9-DIHYDRO-7H-BENZO[7]ANNULENE-2-CARBOXYLIC ACID FOR USE IN METASTATIC OR ADVANCED BREAST CANCER PATIENTS” (SANOFI, priority 2019, published 2020).

In the series the test system is CYP3A. The following applies: in vivo, po; cited from earlier work.

`C[C@@H](Oc1cc(-c2cnn(C3CCNCC3)c2)cnc1N)c1c(Cl)ccc(F)c1Cl` [Crizotinib]: the “AUC Ratio” value is on record as 3.65.
